Experimental findings from paper PMC12613816, “Discovery of Novel Isoxazole-Based Small-Molecule Toll-Like Receptor 8 Antagonists” (Journal of Medicinal Chemistry, 2025) are described below.

This test addresses T1, TLR8 (Homo sapiens, UniProt Q9NR97).
T1 sequence (Q9NR97 27-1041): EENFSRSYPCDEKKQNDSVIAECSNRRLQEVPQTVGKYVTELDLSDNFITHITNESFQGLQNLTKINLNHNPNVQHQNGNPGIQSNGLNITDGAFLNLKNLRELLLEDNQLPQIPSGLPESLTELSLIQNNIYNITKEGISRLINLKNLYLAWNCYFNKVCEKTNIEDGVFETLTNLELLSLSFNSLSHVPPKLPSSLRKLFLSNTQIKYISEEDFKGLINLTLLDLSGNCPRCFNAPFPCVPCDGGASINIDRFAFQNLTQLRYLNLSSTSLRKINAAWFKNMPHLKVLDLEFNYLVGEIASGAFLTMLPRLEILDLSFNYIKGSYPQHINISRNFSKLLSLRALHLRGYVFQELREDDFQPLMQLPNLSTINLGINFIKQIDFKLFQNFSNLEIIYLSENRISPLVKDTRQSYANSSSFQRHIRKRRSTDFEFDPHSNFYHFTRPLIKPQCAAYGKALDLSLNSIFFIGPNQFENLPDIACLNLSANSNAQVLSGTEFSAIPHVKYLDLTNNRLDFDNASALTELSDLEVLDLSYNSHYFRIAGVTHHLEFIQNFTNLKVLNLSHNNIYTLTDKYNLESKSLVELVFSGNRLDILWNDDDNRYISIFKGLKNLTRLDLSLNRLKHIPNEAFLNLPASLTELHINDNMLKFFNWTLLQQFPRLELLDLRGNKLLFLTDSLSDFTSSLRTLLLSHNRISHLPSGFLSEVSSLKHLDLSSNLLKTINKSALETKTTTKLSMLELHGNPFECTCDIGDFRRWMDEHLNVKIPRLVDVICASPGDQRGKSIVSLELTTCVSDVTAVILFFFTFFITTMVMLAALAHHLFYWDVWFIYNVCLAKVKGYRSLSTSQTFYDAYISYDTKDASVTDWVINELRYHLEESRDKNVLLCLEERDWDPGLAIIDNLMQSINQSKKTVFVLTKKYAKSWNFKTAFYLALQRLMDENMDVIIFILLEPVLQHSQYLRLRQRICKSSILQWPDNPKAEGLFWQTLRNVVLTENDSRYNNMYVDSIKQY
As to the kind of experiment: Inhibition of TL8-506-stimulated NF-κB activity (SEAP reporter, QuantiBlue) in hTLR8-HEK293 reporter cells. Format: cell-based. Also noted: host or cells: HEK293 (HEK-Blue hTLR8). The note with it: read-out: % inhibition at 10 µM ± SEM (NF-κB activity), 10 µM compound, TL8-506 (0.6 μM) 24 h.

For orientation: inhibition means the change of the read-out against control, counted positive when it falls. For the molecule `COc1cc(C(=O)NCCN2CCCC2)ccc1OCc1c(C)noc1C` [Compound 11], the inhibition at 10 µM amounted to 75 ± 5%.
